scFv variants of Ab-91 (heavy chain) against a SARS-CoV-2 spike peptide

Source: Engelhart et al. 2022 (doi:10.1038/s41597-022-01779-4), MIT Lincoln Laboratory and A-Alpha Bio; data file from the FLAb repository.

The target is the same throughout: PDVDLGDISGINAS, from the HR2 region of SARS-CoV-2 spike.

The variants keep the light chain, the linker and the frameworks of Ab-91 (scFv order VL, the linker GGGGSGGGGSGGGGS, VH).
VL: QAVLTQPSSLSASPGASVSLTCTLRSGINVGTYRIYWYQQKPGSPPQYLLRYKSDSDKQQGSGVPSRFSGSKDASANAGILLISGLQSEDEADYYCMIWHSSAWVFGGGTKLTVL
VH: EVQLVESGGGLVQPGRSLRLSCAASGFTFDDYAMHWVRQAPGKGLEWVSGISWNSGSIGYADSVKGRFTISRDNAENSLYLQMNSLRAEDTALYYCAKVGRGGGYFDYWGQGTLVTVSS

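Phage display of a naive human antibody library on the peptide gave the parent. Variants in AAYL51 differ from the parent at up to three CDR positions; double and triple changes were sampled at random. Affinity was read by AlphaSeq, a pooled yeast mating assay with surface-displayed partners. The frequency of each diploid, read from paired DNA barcodes, reflects how well the two displayed proteins bind. Each replicate has its own calibration line, from reference interactions of the BCL2 family. Mating was done three times.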

Each variant is given by its three heavy chain CDRs, as the data file delimits them; those of the parent are GFTFDDYAMH, GISWNSGSIGYADSVK, VGRGGGYFDY. Values are log10 of the apparent Kd in nM; lower means stronger binding. Averages over replicates are reported, and they cover detected replicates only. "nd" marks a missing value. The strain was present, yet no cells mated with the target were sequenced in that replicate, which points to weak or no binding. Three control strains display no target. For library AAYL51, 21% of the pairings with them gave a signal, with a median of 4.54 and one signal in twenty below 3.26, so weak values seen in few replicates may be background. The control count says in how many pairings with the empty strains this scFv gave a signal, with their mean in brackets.

{"CDR-H1": "GFTFHDYAMH", "CDR-H2": "GISWNTGSIGYADSVK", "CDR-H3": "VGRGGGYYDY", "log10 Kd, replicates": "nd nd nd", "mean, log10 nM": "nd", "empty controls": "0/9"}
{"CDR-H1": "GFTFDVYAMH", "CDR-H2": "GISWNSGSIGYADSVK", "CDR-H3": "VGREGGYFDY", "log10 Kd, replicates": "nd nd nd", "mean, log10 nM": "nd", "empty controls": "1/9 (3.73)"}
{"CDR-H1": "GFTFDDYAMH", "CDR-H2": "GISWNSTSIGYADSVL", "CDR-H3": "VGRGIGYFDY", "log10 Kd, replicates": "3.38 3.50 3.18", "mean, log10 nM": "3.35", "empty controls": "1/9 (3.34)"}
{"CDR-H1": "GFTFDDYAMH", "CDR-H2": "GISSNSGSIGYADQVK", "CDR-H3": "IGRGGGYFDY", "log10 Kd, replicates": "0.05 -0.10 -0.96", "mean, log10 nM": "-0.34", "empty controls": "1/9 (2.61)"}
{"CDR-H1": "GFTFDPYAMH", "CDR-H2": "GISWNSGSILYADSVQ", "CDR-H3": "VGRGGGYFDY", "log10 Kd, replicates": "nd nd nd", "mean, log10 nM": "nd", "empty controls": "0/9"}
{"CDR-H1": "GFTFTDVCMH", "CDR-H2": "GISWNSGSIGYADSVK", "CDR-H3": "VGRGGGYFDY", "log10 Kd, replicates": "6.18 4.95 nd", "mean, log10 nM": "5.57", "empty controls": "3/9 (5.19)"}
{"CDR-H1": "GFTFDDYAMH", "CDR-H2": "GTSWNSGSIGYWDSVK", "CDR-H3": "VGRGGGYFAY", "log10 Kd, replicates": "nd nd nd", "mean, log10 nM": "nd", "empty controls": "0/9"}
{"CDR-H1": "GCTFDDYAMH", "CDR-H2": "GISWNSGSIGYADSVK", "CDR-H3": "VGFGGGYFDY", "log10 Kd, replicates": "3.42 nd nd", "mean, log10 nM": "3.42", "empty controls": "1/9 (3.93)"}
{"CDR-H1": "GFTFDDYDME", "CDR-H2": "GISWNSGSIGYADSVK", "CDR-H3": "VGRGLGYFDY", "log10 Kd, replicates": "6.73 5.64 4.85", "mean, log10 nM": "5.74", "empty controls": "5/9 (5.04)"}
{"CDR-H1": "GFTFDDYAMH", "CDR-H2": "GAKWNSGSIGYADSVK", "CDR-H3": "VMRGGGYFDY", "log10 Kd, replicates": "nd nd nd", "mean, log10 nM": "nd", "empty controls": "1/9 (3.60)"}
{"CDR-H1": "GFTMDDYAMH", "CDR-H2": "GISWPSGSIGYADSVQ", "CDR-H3": "VGRGGGYFDY", "log10 Kd, replicates": "nd nd nd", "mean, log10 nM": "nd", "empty controls": "1/9 (5.64)"}
{"CDR-H1": "GFTCDDYAMR", "CDR-H2": "GISWNRGSIGYADSVK", "CDR-H3": "VGRGGGYFDY", "log10 Kd, replicates": "nd nd nd", "mean, log10 nM": "nd", "empty controls": "0/9"}
{"CDR-H1": "GFCFDDYAMH", "CDR-H2": "GISWNSGSIGYKDNVK", "CDR-H3": "VGRGGGYFDY", "log10 Kd, replicates": "2.78 2.89 2.60", "mean, log10 nM": "2.76", "empty controls": "4/9 (4.88)"}
{"CDR-H1": "GFTFDDYAMH", "CDR-H2": "GISWNSGSIGYADSVW", "CDR-H3": "VGWGGGYFDL", "log10 Kd, replicates": "nd 2.67 nd", "mean, log10 nM": "2.67", "empty controls": "0/9"}
{"CDR-H1": "GFTFDDYAMH", "CDR-H2": "GISWNSGSIGYADVGK", "CDR-H3": "VGRGGGPFDY", "log10 Kd, replicates": "4.36 nd nd", "mean, log10 nM": "4.36", "empty controls": "6/9 (5.28)"}
{"CDR-H1": "GFTQDDYAMH", "CDR-H2": "GILWNSGSIKYADSVK", "CDR-H3": "VGRGGGYFDY", "log10 Kd, replicates": "nd nd nd", "mean, log10 nM": "nd", "empty controls": "0/9"}
{"CDR-H1": "GFTFDDYAMH", "CDR-H2": "GGSNNSGSIGYADSVK", "CDR-H3": "VGRAGGYFDY", "log10 Kd, replicates": "nd nd nd", "mean, log10 nM": "nd", "empty controls": "2/9 (4.15)"}
{"CDR-H1": "GFTFDYYAMS", "CDR-H2": "GISWNSGSIGYAYSVK", "CDR-H3": "VGRGGGYFDY", "log10 Kd, replicates": "nd nd nd", "mean, log10 nM": "nd", "empty controls": "1/9 (4.40)"}
{"CDR-H1": "GFTFDDYAML", "CDR-H2": "GLSWNSGSFGYADSVK", "CDR-H3": "VGRGGGYFDY", "log10 Kd, replicates": "nd nd nd", "mean, log10 nM": "nd", "empty controls": "3/9 (3.38)"}
{"CDR-H1": "GFTFDDWAMH", "CDR-H2": "GISWNSQSIGYADSEK", "CDR-H3": "VGRGGGYFDY", "log10 Kd, replicates": "5.07 6.86 5.85", "mean, log10 nM": "5.93", "empty controls": "6/9 (6.02)"}
{"CDR-H1": "GFTFDDYAMH", "CDR-H2": "GISWNQGSIGMADSRK", "CDR-H3": "VGRGGGYFDY", "log10 Kd, replicates": "5.00 5.00 nd", "mean, log10 nM": "5.00", "empty controls": "5/9 (4.62)"}
{"CDR-H1": "GFTFADYAMH", "CDR-H2": "GISWNSGSEGYADSGK", "CDR-H3": "VGRGGGYFDY", "log10 Kd, replicates": "nd nd nd", "mean, log10 nM": "nd", "empty controls": "0/9"}
{"CDR-H1": "FFTFDDYAWH", "CDR-H2": "GISWNSGSVGYADSVK", "CDR-H3": "VGRGGGYFDY", "log10 Kd, replicates": "3.76 5.12 nd", "mean, log10 nM": "4.44", "empty controls": "4/9 (4.92)"}
{"CDR-H1": "GFTFDDYAMH", "CDR-H2": "GISWNSSSIGQADSVK", "CDR-H3": "VGRKGGYFDY", "log10 Kd, replicates": "nd nd nd", "mean, log10 nM": "nd", "empty controls": "2/9 (3.71)"}
{"CDR-H1": "GFQFDDYAMH", "CDR-H2": "GISWNSGIIGYADSVF", "CDR-H3": "VGRGGGYFDY", "log10 Kd, replicates": "nd nd nd", "mean, log10 nM": "nd", "empty controls": "0/9"}
{"CDR-H1": "GFTFDDYAMH", "CDR-H2": "GISWACGSIGYADSVC", "CDR-H3": "VGRGGGYFDY", "log10 Kd, replicates": "4.85 4.95 5.39", "mean, log10 nM": "5.06", "empty controls": "7/9 (4.84)"}
{"CDR-H1": "GFTFDDYAMD", "CDR-H2": "GISWNSGSIGWADSVK", "CDR-H3": "VGRGGGYFPY", "log10 Kd, replicates": "nd 4.36 nd", "mean, log10 nM": "4.36", "empty controls": "2/9 (3.55)"}
{"CDR-H1": "GFTFDDMAMH", "CDR-H2": "GIIWNSGSIGYADSVK", "CDR-H3": "VGRGGGYFPY", "log10 Kd, replicates": "nd nd nd", "mean, log10 nM": "nd", "empty controls": "0/9"}
{"CDR-H1": "GFTFQDYAMH", "CDR-H2": "GVSWNSGSTGYADSVK", "CDR-H3": "VGRGGGYFDY", "log10 Kd, replicates": "1.20 1.36 0.79", "mean, log10 nM": "1.12", "empty controls": "4/9 (4.92)"}
{"CDR-H1": "GFTFDDYAEH", "CDR-H2": "GESWNSGSIGYADKVK", "CDR-H3": "VGRGGGYFDY", "log10 Kd, replicates": "nd nd nd", "mean, log10 nM": "nd", "empty controls": "0/9"}
{"CDR-H1": "GFIFDDYAMH", "CDR-H2": "GSSRNSGSIGYADSVK", "CDR-H3": "VGRGGGYFDY", "log10 Kd, replicates": "5.45 4.62 nd", "mean, log10 nM": "5.04", "empty controls": "5/9 (5.09)"}
{"CDR-H1": "GFTFDDYFMH", "CDR-H2": "GISWNSGSIVYADSVK", "CDR-H3": "VGRGGTYFDY", "log10 Kd, replicates": "4.07 nd nd", "mean, log10 nM": "4.07", "empty controls": "4/9 (4.54)"}

Repeated from above, the 3 best binders with a signal in all replicates:

CDR-H1	CDR-H2	CDR-H3	log10 Kd, replicates	mean, log10 nM	empty controls
GFTFDDYAMH	GISSNSGSIGYADQVK	IGRGGGYFDY	0.05 -0.10 -0.96	-0.34	1/9 (2.61)
GFTFQDYAMH	GVSWNSGSTGYADSVK	VGRGGGYFDY	1.20 1.36 0.79	1.12	4/9 (4.92)
GFCFDDYAMH	GISWNSGSIGYKDNVK	VGRGGGYFDY	2.78 2.89 2.60	2.76	4/9 (4.88)